From US20040043420A1, “Method of identifying conformation-sensitive binding peptides and uses thereof” (priority 2003, published 2004)

The chains behind the UniProt entries cited, without tags or fusion partners.
UniProt P03372, whole entry: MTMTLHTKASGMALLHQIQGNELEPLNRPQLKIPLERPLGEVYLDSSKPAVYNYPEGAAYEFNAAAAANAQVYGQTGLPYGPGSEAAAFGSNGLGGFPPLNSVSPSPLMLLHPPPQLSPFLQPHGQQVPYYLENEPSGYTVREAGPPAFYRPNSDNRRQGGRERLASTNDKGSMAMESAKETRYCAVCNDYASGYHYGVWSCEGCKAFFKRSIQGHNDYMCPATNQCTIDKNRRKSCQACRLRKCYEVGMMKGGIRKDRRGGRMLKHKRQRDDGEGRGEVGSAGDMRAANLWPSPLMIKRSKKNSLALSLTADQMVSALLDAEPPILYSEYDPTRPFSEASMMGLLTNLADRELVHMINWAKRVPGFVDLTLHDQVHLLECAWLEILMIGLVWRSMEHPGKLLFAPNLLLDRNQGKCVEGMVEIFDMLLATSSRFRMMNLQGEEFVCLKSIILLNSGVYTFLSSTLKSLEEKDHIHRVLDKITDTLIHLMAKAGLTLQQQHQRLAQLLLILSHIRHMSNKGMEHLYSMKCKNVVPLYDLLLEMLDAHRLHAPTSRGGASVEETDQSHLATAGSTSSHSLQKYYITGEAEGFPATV

Molecular target: ERα (Homo sapiens, UniProt P03372)
Test: Binding of the peptide probes to ERα in the presence of modulators, dose response (Table 15a)
Conditions: positive: % of maximum stimulation by 4-OH tamoxifen, negative: % of reduction by ICI 182,780

CC/C(=C(\c1ccc(O)cc1)c1ccc(/C=C/C(=O)O)cc1)c1ccccc1 [GW7604]
0%: Equiv. (equivalency), peptide probe α/βIII on ERα (probe α/βIII) | Equiv. (equivalency), peptide probe α/βIV on ERα (probe α/βIV) | Equiv. (equivalency), peptide probe α/βV on ERα (probe α/βV)
